Target: Stat3 (UniProt P40763)
Assay: fluorescence polarization competition

Chains of the proteins cited; added tags and fusions are not shown.
UniProt P40763, whole entry: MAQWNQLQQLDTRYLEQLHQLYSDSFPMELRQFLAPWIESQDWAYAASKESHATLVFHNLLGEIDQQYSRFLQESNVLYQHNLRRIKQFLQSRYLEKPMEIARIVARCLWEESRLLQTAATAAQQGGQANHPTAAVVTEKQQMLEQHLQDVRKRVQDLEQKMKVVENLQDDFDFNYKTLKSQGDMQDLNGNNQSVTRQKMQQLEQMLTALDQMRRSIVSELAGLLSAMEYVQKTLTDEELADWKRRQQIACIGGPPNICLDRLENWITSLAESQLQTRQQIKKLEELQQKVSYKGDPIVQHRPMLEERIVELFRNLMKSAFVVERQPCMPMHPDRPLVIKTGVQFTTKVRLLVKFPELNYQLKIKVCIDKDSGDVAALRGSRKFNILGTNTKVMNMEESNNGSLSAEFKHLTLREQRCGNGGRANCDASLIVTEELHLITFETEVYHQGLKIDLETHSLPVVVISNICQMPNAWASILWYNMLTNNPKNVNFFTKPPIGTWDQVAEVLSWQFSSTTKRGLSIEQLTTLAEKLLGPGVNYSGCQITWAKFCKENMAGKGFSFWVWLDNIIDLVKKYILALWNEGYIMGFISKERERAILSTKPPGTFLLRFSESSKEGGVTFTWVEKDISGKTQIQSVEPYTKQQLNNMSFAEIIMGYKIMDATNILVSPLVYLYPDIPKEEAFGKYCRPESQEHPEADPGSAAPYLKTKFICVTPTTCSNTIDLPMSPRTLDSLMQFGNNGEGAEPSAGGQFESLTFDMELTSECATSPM

- IC50: 150 nM
Substance: pInd-Leu-Pro-Gln-Thr-NH2 (6, PM-59D)

From patent US20070010428A1, “Inhibitors of signal transduction and activator of transcription 3” (priority 2004, published 2007)
